Laboratory results as given in patent publication US8865744B1, “(Cyano-dimethyl-methyl)-isoxazoles and -[1,3,4]thiadiazoles” (Boehringer Ingelheim International GmbH, priority 2013, dated 2014).

Chains of the proteins cited; added tags and fusions are not shown.
UniProt P34972, whole entry: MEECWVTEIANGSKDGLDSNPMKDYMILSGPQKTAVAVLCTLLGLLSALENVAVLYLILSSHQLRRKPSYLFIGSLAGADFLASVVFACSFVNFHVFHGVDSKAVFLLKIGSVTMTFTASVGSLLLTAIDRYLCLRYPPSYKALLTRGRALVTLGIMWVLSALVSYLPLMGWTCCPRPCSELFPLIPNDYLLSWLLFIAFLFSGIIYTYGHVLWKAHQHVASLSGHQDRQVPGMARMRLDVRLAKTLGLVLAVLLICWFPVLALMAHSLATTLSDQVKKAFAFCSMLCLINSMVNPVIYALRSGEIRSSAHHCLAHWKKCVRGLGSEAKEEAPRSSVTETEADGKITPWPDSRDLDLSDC
UniProt P21554, whole entry: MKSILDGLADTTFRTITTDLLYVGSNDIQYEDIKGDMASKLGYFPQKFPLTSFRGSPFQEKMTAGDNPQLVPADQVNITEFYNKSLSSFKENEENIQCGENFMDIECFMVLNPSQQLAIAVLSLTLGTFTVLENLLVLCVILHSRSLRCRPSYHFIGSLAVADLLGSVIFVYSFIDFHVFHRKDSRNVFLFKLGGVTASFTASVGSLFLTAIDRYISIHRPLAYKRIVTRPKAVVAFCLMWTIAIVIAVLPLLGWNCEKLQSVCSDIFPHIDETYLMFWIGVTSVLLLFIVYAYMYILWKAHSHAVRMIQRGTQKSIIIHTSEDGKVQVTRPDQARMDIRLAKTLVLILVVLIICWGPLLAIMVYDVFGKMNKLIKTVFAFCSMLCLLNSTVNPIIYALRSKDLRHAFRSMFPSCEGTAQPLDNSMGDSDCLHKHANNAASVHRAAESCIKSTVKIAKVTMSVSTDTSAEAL

Experiments:
[1] = target: T1, human CB2R (Homo sapiens, UniProt P34972); experiment: CB2 cAMP (Assay 1): In vitro testing of CB2 potency; assay type: cell-based
T1 construct: host or cells: CHO cells

[2] = target: T2, human CB1R (Homo sapiens, UniProt P21554); experiment: CB1 cAMP (Assay 2): In vitro testing of CB1 potency; assay type: cell-based
T2 construct: host or cells: CHO cells

CC(C)(C#N)c1cc(NC(=O)[C@@H]2CCCN2C2CCOCC2)on1 [Example 6, (S)-1-(Tetrahydro-pyran-4-yl)-pyrrolidine-2-carboxylic acid[3-(cyano-dimethyl-methyl)-isoxazol-5-yl]-amide]
EC50 [1]: 0.011 µM | EC50 [2]: 87 µM
